These are literature values, as cited in publication PMC5809328 (Neuropharmacology, 2017).

For this data set, the system named is mice. As to conditions: ref Pan et al., 2009, Marrone 2017; cited from earlier work.

Consider `CN1CC[C@]23c4c5ccc(O)c4O[C@H]2[C@@H](O)C=C[C@H]3[C@H]1C5` [Morphine], for which the “analgesic activity in E11 KO mice” value was “retains full analgesic activity”.
